Data from US20250186436A1 (4E Therapeutics, Inc., priority 2021, published 2025).

Test system: eIF4E phosphorylation at Serine 209 in HEK 293 cells
Assay: eIF4E phosphorylation in HEK 293 cells (phospho-specific antibody, fluorescent plate reader);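 further: Well-level p-eIF4E immunofluorescence normalized to DAPI signal, expressed as percent eIF4E phosphorylation, with IC50 derived from concentration-response curves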
Conditions: read-out: HEK 293 cell; eIF4E phosphorylation at Serine 209, 2 hours exposure

| Compound | IC50 [nM] |
| --- | --- |
| Cc1cc(Nc2cc(N)ncn2)c(=O)n2c1C(=O)NC21CCCC2(CC2)CC1 (single isomer, unassigned) [Enatiomer 1 of 4ET-01-027] | 11.6 |
| Cc1cc(Nc2cc(N)ncn2)c(=O)n2c1C(=O)NC21CCCC2(CC2)CC1 (single isomer, unassigned) [Enatiomer 2 of 4ET-01-027] | 25.4 |
